Values quoted from earlier work as cited in patent US10952975B2, “Compositions and methods for treatment of cancer” (priority 2019, dated 2021).

The chains behind the UniProt entries cited, without tags or fusion partners.
UniProt P31153, whole entry: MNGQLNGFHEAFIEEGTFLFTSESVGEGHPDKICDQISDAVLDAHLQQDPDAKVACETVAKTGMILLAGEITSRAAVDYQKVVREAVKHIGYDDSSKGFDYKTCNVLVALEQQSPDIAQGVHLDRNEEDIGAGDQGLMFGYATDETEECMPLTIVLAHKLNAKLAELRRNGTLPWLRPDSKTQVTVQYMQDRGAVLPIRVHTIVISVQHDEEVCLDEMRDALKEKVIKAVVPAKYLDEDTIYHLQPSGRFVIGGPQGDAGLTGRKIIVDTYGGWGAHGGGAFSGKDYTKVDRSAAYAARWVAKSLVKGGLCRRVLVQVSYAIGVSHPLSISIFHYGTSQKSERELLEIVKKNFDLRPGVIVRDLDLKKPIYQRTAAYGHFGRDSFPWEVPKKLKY

Key:
[1] = system: LS174T CRC (colorectal cancer); conditions: 3 μM, up to 7 d in vitro
[2] = system: LS174T cells; conditions: 36 h, 3 μM FIDAS-5
[3] = target: MAT2A (Homo sapiens, UniProt P31153); conditions: cell-free and cell-based
[4] = system: HT29 CRC tumor; conditions: d 18 post xenograft; 20 mg/kg/day orally starting d 4

potency relative to FIDAS-3 in inhibiting MAT2A-catalyzed SAM synthesis [3]: > 2 fold
Compound: CNc1ccc(/C=C/c2c(F)cccc2Cl)cc1
inhibition of proliferation [1]: completely inhibit
decrease of SAH level [2]: 56%
decrease of SAM level [2]: 64%
suppression of HT29 CRC tumor expansion [4]: 58%
